Biological target: catechol-O-methyltransferase (COMT) (Homo sapiens, UniProt P21964)
Assay: COMT inhibition assay (HTRF, production of S-adenosyl homocysteine)
Settings: recombinant human COMT, HTRF SAH production; MB-COMT or S-COMT not stated for Table 1; tested form: trifluoroacetate (TFA salt)
Method: The ability of compounds to inhibit the activity of catechol-O-methyltransferase (COMT) was determined by a homogenous time-resolved fluorescent (HTRF) assay (Lina et al, 2012; kit from CisBio, Codolet, France). This assay measures the production of S-adenosyl homocysteine (SAH) from the methyl donor S-adenosyl methionine. Recombinant human membrane bound COMT (MB-COMT; M51A variant) was expressed in HEK 293F cells using 293Fectin (Life Technologies, Gent, Belgium) and membranes prepared. The membranes were re-suspended in buffer (20 mM Tris/HCl pH 7; 10 mM glycerol; 2 mM MgCl2; 10 mM NaCl), aliquoted and stored at −80° C. […]
For the human MB-COMT assay, membranes (62 ng/well) were incubated with SAM (20 μM final, CisBio) and dopamine (1.5 μM final; Sigma H8502, Diegem, Belgium) in the presence or absence of varying concentrations (typically 10 concentrations ranging from 10 μM to 0.1 nM) of compound for 40 min at 37° C. in 384-well microtitre plates (10 μl per well final volume). The reaction was terminated by the addition of acylation buffer and the amount of SAH produced determined according to manufacturer's instructions. […]
The human S-COMT assay was performed as above except that 0.15 ng enzyme/well was incubated with SAM (20 μM final) and dopamine (100 μM final) for 15 min at 37° C. and SAH production determined. […]

Protein sequences, listed by entry. Tags and fused reporters are not part of them. Residues count along the entry.
UniProt P21964, 52-271 limits assumed: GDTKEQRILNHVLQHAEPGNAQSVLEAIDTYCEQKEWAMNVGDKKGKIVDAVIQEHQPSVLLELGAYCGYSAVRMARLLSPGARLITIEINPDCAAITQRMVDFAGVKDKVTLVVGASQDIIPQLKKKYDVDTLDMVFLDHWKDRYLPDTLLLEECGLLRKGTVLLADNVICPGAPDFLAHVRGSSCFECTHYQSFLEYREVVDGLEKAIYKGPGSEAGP

Structure (SMILES): O=S(=O)(c1ccc(O)c2ncccc12)C1CCN(Cc2cccc(Cl)c2Cl)CC1 [Example 38, 5-[[1-[(2,3-dichlorophenyl)methyl]-4-piperidyl]sulfonyl]quinolin-8-ol]
- Activity range (pIC50, COMT inhibition): +++ (a pIC50 of above about 7)

From patent US10035799B2, “COMT inhibiting methods and compositions” (Lieber Institute for Brain Development, priority 2015, dated 2018)
